From PubChem BioAssay AID651635 (National Center for Advancing Translational Sciences (NCATS), 2012)
The list shows a part of the results, in another mix than the full data. Inconclusive results are not listed. A call without a number means that no potency is given here. The source made the active and inactive calls. The call rests on the fitted dose curve; in most records, active means well fitted cell-killing curve with a large enough effect; inconclusive means small, poorly fitted or top-dose-only effect, or effect the other way; inactive means no such curve, though single readings can be large or run the other way.

Assay: Viability Counterscreen for Primary qHTS for Inhibitors of ATXN expression; further: nearly all actives have a fitted effect of over 40% in size
Conditions: S2 cells (HEK-293 line with an ATXN2-luciferase reporter) viability, CellTiter-Fluor protease fluorescence, 24 h; series mostly up to 56.7 µM
Potency means the concentration at half of the fitted maximal effect.

Row | SMILES | Potency
1 | CN(C(=O)Cc1ccc(Cl)c(Cl)c1)[C@H]1CC[C@@]2(CCCO2)C[C@@H]1N1CCCC1 | inactive
2 | NC(=O)Nc1ccc([As](=O)(O)O)cc1 | inactive
3 | Nc1ccccc1[As](=O)(O)c1ccccc1 | inactive
4 | O=C(O)COc1ccc([As](=O)(O)O)cc1[N+](=O)[O-] | inactive
5 | CCOP1(=S)c2c(C)nn(CCC#N)c2N=C(c2ccccc2F)N1C (stereo not given) | inactive
6 | O=P(Nc1nccs1)(Oc1ccccc1)Oc1ccccc1 | inactive
7 | O=P(Nc1nccs1)(c1ccccc1)c1nc2ccccc2s1 (stereo not given) | inactive
8 | CS(=O)(=O)c1cc([N+](=O)[O-])c2no[n+]([O-])c2c1 | inactive
9 | Nc1cccc([As](=O)(O)c2ccccc2)c1 | inactive
10 | O=[As](O)(c1cccs1)c1cccs1 | inactive
11 | Cc1ccc(OCC(=O)OC2CN3CCC2CC3)cc1 (stereo not given) | inactive
12 | O=P1(Nc2ccc(Br)cn2)COc2ccccc2OC1 | inactive
13 | NS(=O)(=O)c1cccc(NC(=O)COC(=O)C(O)(c2ccccc2)c2ccccc2)c1 | inactive
14 | O=P1(Nc2ncccn2)COc2ccccc2OC1 | inactive
15 | CN(C)C1(CNC(=O)c2ccc(S(C)(=O)=O)cc2)CCCCC1 | inactive
16 | O=C(/C=C/c1ccccc1)OC1CN2CCC1CC2 (stereo not given) | inactive
17 | CCCC1OP(=O)(Nc2ccccc2)OCC1CC (stereo not given) | inactive
18 | Cc1nn(-c2ccccc2)c2c1P(=O)(N1CCOCC1)N(C)C(c1ccccc1)=N2 (stereo not given) | inactive
19 | CC1CCC(C(C)C)C(OP(=O)(Nc2ccccn2)c2ccccc2)C1 (stereo not given) | inactive
20 | CC(C)/C=N\N=C(\N)N[N+](=O)[O-] | inactive
21 | CN(C(=O)Cc1ccc(Cl)c(Cl)c1)[C@@H]1CCCC[C@H]1N1CCCC1 | inactive
22 | CC1(CBr)Cn2c(nc3ccccc3c2=O)S1 (stereo not given) | inactive
23 | COc1ccccc1CNC(=O)COC(=O)C(O)(c1ccccc1)c1ccccc1 | inactive
24 | O=P1(N(CCCl)CCCl)NCCC(C(F)(F)F)O1 (stereo not given) | inactive
25 | CC(C)(C)C(=O)NC(Sc1ncccn1)C(Cl)(Cl)Cl (stereo not given) | inactive
26 | O=P1(Nc2ccccn2)COc2ccccc2OC1 | inactive
27 | CCC1=CC2Cc3nc4ccc(Cl)cc4c(N)c3C(C1)C2 (stereo not given) | active: 20 µM
28 | CCOP(=O)(NC(=NC(C)c1ccccc1)NC(C)c1ccccc1)OCC (stereo not given) | inactive
29 | CCOP(=O)(Nc1ccc(C)cn1)OCC | inactive
30 | CN(CCCl)Cc1cc(Cl)c(NC2=NCCN2)c(Cl)c1 | inactive
